Earlier results, collected in US5104858A, “Sensitizing multidrug resistant cells to antitumor agents” (priority 1988, dated 1992).
“Also recorded” adds a separate entry of the source.

System: dopamine receptors
Conditions: cited from earlier work

OCCN1CCN(CC/C=C2\c3ccccc3Sc3ccc(C(F)(F)F)cc32)CC1 [trans-Flupenthixol]
dopamine antagonism: far less potent dopamine antagonist; also recorded: virtually no activity as a dopamine antagonist
